Article PMC4126848 (Epilepsia, 2014)
Where two headings read alike, the source gives them in different places.

Protein sequences, listed by entry. Tags and fused reporters are not part of them.
UniProt P04775, whole entry G879Q/A880Q/L881Q: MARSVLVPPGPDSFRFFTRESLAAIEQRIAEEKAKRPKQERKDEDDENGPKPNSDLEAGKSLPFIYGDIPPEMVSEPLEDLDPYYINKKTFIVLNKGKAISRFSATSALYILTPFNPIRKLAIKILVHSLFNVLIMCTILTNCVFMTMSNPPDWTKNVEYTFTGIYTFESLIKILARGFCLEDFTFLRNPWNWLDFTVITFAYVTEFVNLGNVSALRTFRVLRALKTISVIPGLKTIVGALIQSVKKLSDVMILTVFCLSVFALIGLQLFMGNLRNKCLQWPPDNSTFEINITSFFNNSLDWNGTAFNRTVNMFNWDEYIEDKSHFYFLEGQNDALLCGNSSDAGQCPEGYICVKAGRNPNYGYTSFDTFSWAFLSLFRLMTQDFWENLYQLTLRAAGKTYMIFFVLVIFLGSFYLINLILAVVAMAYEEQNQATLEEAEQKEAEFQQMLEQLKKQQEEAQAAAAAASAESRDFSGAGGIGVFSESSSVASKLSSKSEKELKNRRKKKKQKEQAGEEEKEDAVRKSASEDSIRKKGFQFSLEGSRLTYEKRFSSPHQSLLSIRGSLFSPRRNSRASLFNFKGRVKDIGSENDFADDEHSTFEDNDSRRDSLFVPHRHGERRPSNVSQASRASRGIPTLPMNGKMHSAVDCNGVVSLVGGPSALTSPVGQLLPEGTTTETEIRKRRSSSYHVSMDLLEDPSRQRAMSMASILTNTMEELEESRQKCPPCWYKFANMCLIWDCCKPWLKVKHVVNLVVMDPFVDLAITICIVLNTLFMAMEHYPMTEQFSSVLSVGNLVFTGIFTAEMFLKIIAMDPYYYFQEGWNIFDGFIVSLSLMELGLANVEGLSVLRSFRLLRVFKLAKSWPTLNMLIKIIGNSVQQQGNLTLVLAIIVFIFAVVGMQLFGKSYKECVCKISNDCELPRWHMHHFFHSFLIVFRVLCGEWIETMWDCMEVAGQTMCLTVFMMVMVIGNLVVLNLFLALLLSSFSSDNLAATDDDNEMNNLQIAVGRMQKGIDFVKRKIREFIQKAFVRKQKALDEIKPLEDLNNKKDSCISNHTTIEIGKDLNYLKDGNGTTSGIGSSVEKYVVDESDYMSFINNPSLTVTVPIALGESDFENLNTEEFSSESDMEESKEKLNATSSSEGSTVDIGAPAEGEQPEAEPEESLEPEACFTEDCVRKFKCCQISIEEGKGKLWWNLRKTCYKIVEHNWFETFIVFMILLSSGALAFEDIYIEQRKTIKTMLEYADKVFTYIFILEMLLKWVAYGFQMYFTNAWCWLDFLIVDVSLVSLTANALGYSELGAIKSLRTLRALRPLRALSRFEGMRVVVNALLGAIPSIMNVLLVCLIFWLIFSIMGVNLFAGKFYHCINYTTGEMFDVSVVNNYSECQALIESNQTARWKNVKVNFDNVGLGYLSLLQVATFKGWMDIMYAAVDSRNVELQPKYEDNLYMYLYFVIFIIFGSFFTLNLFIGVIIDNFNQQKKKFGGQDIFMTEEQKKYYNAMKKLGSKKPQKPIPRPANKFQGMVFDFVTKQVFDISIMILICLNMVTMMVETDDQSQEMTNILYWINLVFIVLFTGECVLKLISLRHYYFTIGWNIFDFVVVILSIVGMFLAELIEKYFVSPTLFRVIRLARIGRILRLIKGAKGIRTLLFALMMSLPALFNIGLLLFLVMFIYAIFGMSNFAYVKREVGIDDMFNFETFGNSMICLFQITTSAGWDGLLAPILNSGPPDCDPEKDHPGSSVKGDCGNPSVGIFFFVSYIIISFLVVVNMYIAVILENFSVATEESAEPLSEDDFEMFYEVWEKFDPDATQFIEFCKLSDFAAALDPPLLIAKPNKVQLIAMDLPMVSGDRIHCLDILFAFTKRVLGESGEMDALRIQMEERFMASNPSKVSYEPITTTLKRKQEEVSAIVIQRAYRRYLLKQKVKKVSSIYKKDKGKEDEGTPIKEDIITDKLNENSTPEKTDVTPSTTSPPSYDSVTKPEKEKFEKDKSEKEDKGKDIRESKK

Molecular target: rat NaV1.2-GAL879-881QQQ (Rattus norvegicus, UniProt P04775, A880Q/G879Q/L881Q)
Assay: Whole-cell voltage clamp of tsA201 cells expressing mutant NaV1.2
Settings: for preference for persistent current block over peak current block: ratio of IC50 values; for inhibition at 10 µM: tsA201, read-out: steady-state use-dependent inhibition of transient sodium current, 10 µM phenytoin

FC(F)(F)Oc1ccc(-c2ccc3nnc(C(F)(F)F)n3c2)cc1 [GS967]
effect on voltage dependence of activation and steady-state inactivation (1 µM): small hyperpolarized shifts | steady-state use-dependent inhibition of transient sodium current (1 µM GS967, 10 – 100 Hz): minimal steady-state use-dependent inhibition | preference for persistent current block over peak current block: 42 fold

O=C1NC(=O)C(c2ccccc2)(c2ccccc2)N1 [Phenytoin, reference compound]
preference for persistent current block over peak current block: 9 fold | inhibition at 10 µM (high stimulation frequencies): 44.2 ± 3.7% | inhibition at 10 µM (low frequency stimulation): 22.6 ± 2.8%
